Experimental data as given in PubChem BioAssay (NCI).
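Compound exposure: 48 hours, 5 concentrations, 96-well plates. GI50 is the concentration that inhibits growth by half. TGI is the concentration that stops growth completely.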

Key:
Assay in all cases: NCI tumour cell line growth inhibition, 48 h
T-47D breast = tested on: T-47D breast
UACC-62 melanoma = tested on: UACC-62 melanoma
K-562 leukemia = tested on: K-562 leukemia
KM12 colon = tested on: KM12 colon
SN12C renal = tested on: SN12C renal
NCI-H226 lung = tested on: NCI-H226 lung
SW-620 colon = tested on: SW-620 colon
HT29 colon = tested on: HT29 colon
SF-295 CNS = tested on: SF-295 CNS
MDA-N = tested on: MDA-N
MDA-MB-435 = tested on: MDA-MB-435
UACC-257 melanoma = tested on: UACC-257 melanoma
NCI-H460 lung = tested on: NCI-H460 lung
RPMI-8226 leukemia = tested on: RPMI-8226 leukemia
A549 NSCLC = tested on: A549 NSCLC
MDA-MB-231 breast = tested on: MDA-MB-231 breast
OVCAR-8 ovarian = tested on: OVCAR-8 ovarian
NCI-H522 lung = tested on: NCI-H522 lung
SF-268 CNS = tested on: SF-268 CNS
EKVX NSCLC = tested on: EKVX NSCLC
SK-MEL-28 melanoma = tested on: SK-MEL-28 melanoma
RXF 393 renal = tested on: RXF 393 renal
LOX IMVI melanoma = tested on: LOX IMVI melanoma
A498 renal = tested on: A498 renal
SK-OV-3 ovarian = tested on: SK-OV-3 ovarian
OVCAR-3 ovarian = tested on: OVCAR-3 ovarian
U251 CNS = tested on: U251 CNS
MOLT-4 leukemia = tested on: MOLT-4 leukemia
HCT-116 colon = tested on: HCT-116 colon
CAKI-1 renal = tested on: CAKI-1 renal
IGROV1 ovarian = tested on: IGROV1 ovarian
SK-MEL-5 melanoma = tested on: SK-MEL-5 melanoma
OVCAR-5 ovarian = tested on: OVCAR-5 ovarian
SNB-19 CNS = tested on: SNB-19 CNS
HS 578T breast = tested on: HS 578T breast
DU-145 prostate = tested on: DU-145 prostate
786-0 renal = tested on: 786-0 renal
ACHN renal = tested on: ACHN renal
HOP-62 NSCLC = tested on: HOP-62 NSCLC
HCT-15 colon = tested on: HCT-15 colon
MCF7 breast = tested on: MCF7 breast
M14 melanoma = tested on: M14 melanoma
SK-MEL-2 melanoma = tested on: SK-MEL-2 melanoma
HL-60(TB) leukemia = tested on: HL-60(TB) leukemia
UO-31 renal = tested on: UO-31 renal
HOP-92 NSCLC = tested on: HOP-92 NSCLC
NCI/ADR-RES ovarian = tested on: NCI/ADR-RES ovarian
OVCAR-4 ovarian = tested on: OVCAR-4 ovarian
NCI-H322M lung = tested on: NCI-H322M lung
BT-549 breast = tested on: BT-549 breast
MALME-3M melanoma = tested on: MALME-3M melanoma
CCRF-CEM leukemia = tested on: CCRF-CEM leukemia
SR leukemia = tested on: SR leukemia
SNB-75 CNS = tested on: SNB-75 CNS
PC-3 prostate = tested on: PC-3 prostate
SF-539 CNS = tested on: SF-539 CNS
NCI-H23 lung = tested on: NCI-H23 lung
COLO 205 colon = tested on: COLO 205 colon

O=c1[nH]c2cc([N+](=O)[O-])c(N/N=C/c3ccc([N+](=O)[O-])o3)c([N+](=O)[O-])c2[nH]1
GI50 (T-47D breast): 15 µM | TGI (T-47D breast): 42.1 µM | GI50 (UACC-62 melanoma): 9.26 µM | TGI (UACC-62 melanoma): 21.8 µM | GI50 (K-562 leukemia): 14.4 µM | TGI (K-562 leukemia): 81.9 µM | GI50 (KM12 colon): 7.37 µM | TGI (KM12 colon): 21.6 µM | GI50 (SN12C renal): 10.1 µM | TGI (SN12C renal): 24.9 µM | GI50 (NCI-H226 lung): 10.3 µM | TGI (NCI-H226 lung): 61.2 µM | GI50 (SW-620 colon): 16.4 µM | TGI (SW-620 colon): > 100 µM | GI50 (HT29 colon): 18.5 µM | TGI (HT29 colon): 36.6 µM | GI50 (SF-295 CNS): 22.5 µM | TGI (SF-295 CNS): 69.9 µM | GI50 (MDA-N): 10.7 µM | TGI (MDA-N): 28 µM | GI50 (MDA-MB-435): 6.6 µM | TGI (MDA-MB-435): 21.7 µM | GI50 (UACC-257 melanoma): 13.7 µM | TGI (UACC-257 melanoma): 26.9 µM | GI50 (NCI-H460 lung): 16.3 µM | TGI (NCI-H460 lung): 32.8 µM | GI50 (RPMI-8226 leukemia): 11.7 µM | TGI (RPMI-8226 leukemia): 48.6 µM | GI50 (A549 NSCLC): 18.1 µM | TGI (A549 NSCLC): 36.2 µM | GI50 (MDA-MB-231 breast): 20.4 µM | TGI (MDA-MB-231 breast): 46.8 µM | GI50 (OVCAR-8 ovarian): 14 µM | TGI (OVCAR-8 ovarian): 44.3 µM | GI50 (NCI-H522 lung): 5.89 µM | TGI (NCI-H522 lung): 23.5 µM | GI50 (SF-268 CNS): 10.1 µM | TGI (SF-268 CNS): 28.5 µM | GI50 (EKVX NSCLC): 17.3 µM | TGI (EKVX NSCLC): 32.2 µM | GI50 (SK-MEL-28 melanoma): 17.6 µM | TGI (SK-MEL-28 melanoma): 39.5 µM | GI50 (RXF 393 renal): 14.3 µM | TGI (RXF 393 renal): 37.4 µM | GI50 (LOX IMVI melanoma): 5.87 µM | TGI (LOX IMVI melanoma): 20.6 µM | GI50 (A498 renal): 18 µM | TGI (A498 renal): 32.8 µM | GI50 (SK-OV-3 ovarian): 16.4 µM | TGI (SK-OV-3 ovarian): 54.4 µM | GI50 (OVCAR-3 ovarian): 7.52 µM | TGI (OVCAR-3 ovarian): 28.2 µM | GI50 (U251 CNS): 5.68 µM | TGI (U251 CNS): 21.4 µM | GI50 (MOLT-4 leukemia): 14.5 µM | TGI (MOLT-4 leukemia): > 100 µM | GI50 (HCT-116 colon): 12.9 µM | TGI (HCT-116 colon): 27.2 µM | GI50 (CAKI-1 renal): 16.5 µM | TGI (CAKI-1 renal): 41.8 µM | GI50 (IGROV1 ovarian): 16.3 µM | TGI (IGROV1 ovarian): 31.7 µM | GI50 (SK-MEL-5 melanoma): 11.7 µM | TGI (SK-MEL-5 melanoma): 25 µM | GI50 (OVCAR-5 ovarian): 30.9 µM | TGI (OVCAR-5 ovarian): 93.8 µM | GI50 (SNB-19 CNS): 7.06 µM | TGI (SNB-19 CNS): 22.6 µM | GI50 (HS 578T breast): 8.29 µM | TGI (HS 578T breast): > 100 µM | GI50 (DU-145 prostate): 5.4 µM | TGI (DU-145 prostate): 19.6 µM | GI50 (786-0 renal): 5.75 µM | TGI (786-0 renal): 28.5 µM | GI50 (ACHN renal): 15.3 µM | TGI (ACHN renal): 29.9 µM | GI50 (HOP-62 NSCLC): 3.37 µM | TGI (HOP-62 NSCLC): 17.6 µM | GI50 (HCT-15 colon): 14.3 µM | TGI (HCT-15 colon): 36.5 µM | GI50 (MCF7 breast): 11.4 µM | TGI (MCF7 breast): 30.9 µM | GI50 (M14 melanoma): 6.56 µM | TGI (M14 melanoma): 22.3 µM | GI50 (SK-MEL-2 melanoma): 12.6 µM | TGI (SK-MEL-2 melanoma): 32.7 µM | GI50 (HL-60(TB) leukemia): 12.9 µM | TGI (HL-60(TB) leukemia): 49.7 µM | GI50 (UO-31 renal): 15.9 µM | TGI (UO-31 renal): 32.4 µM | GI50 (HOP-92 NSCLC): 17.4 µM | TGI (HOP-92 NSCLC): 35 µM | GI50 (NCI/ADR-RES ovarian): 27.3 µM | TGI (NCI/ADR-RES ovarian): > 100 µM | GI50 (OVCAR-4 ovarian): 16 µM | TGI (OVCAR-4 ovarian): 32.3 µM | GI50 (NCI-H322M lung): 6.88 µM | TGI (NCI-H322M lung): 19 µM | GI50 (BT-549 breast): 11.3 µM | TGI (BT-549 breast): 23.8 µM | GI50 (MALME-3M melanoma): 16.4 µM | TGI (MALME-3M melanoma): 30.8 µM | GI50 (CCRF-CEM leukemia): 7.5 µM | TGI (CCRF-CEM leukemia): 56.7 µM | GI50 (SR leukemia): 5.74 µM | TGI (SR leukemia): 50.8 µM | GI50 (SNB-75 CNS): 13.8 µM | TGI (SNB-75 CNS): 32.5 µM | GI50 (PC-3 prostate): 26.7 µM | TGI (PC-3 prostate): > 100 µM | GI50 (SF-539 CNS): 15 µM | TGI (SF-539 CNS): 31.6 µM | GI50 (NCI-H23 lung): 12.7 µM | TGI (NCI-H23 lung): 29 µM | GI50 (COLO 205 colon): 9.98 µM | TGI (COLO 205 colon): 28.9 µM
